The list shows a part of the results, in another mix than the full data. Results filed as inconclusive are left out. Active and inactive are the calls of the source. Calls come from the whole dose curve; as a rule, active = well fitted inhibition curve with a large enough effect; inconclusive = small, poorly fitted or top-dose-only effect; inactive = no such curve, though single readings can be large or run the other way.
Each compound was assayed against Ferritin light chain (Equus caballus) (UniProt P02791) (assay: qHTS Assay for Identification of Novel General Anesthetics). Details: apoferritin/1-aminoanthracene competitive binding, fluorescence; at 77.5 µM (top of the series).
% is set by controls: 0 for no effect and ±100 for the full control effect.
Note: nearly all actives have a fitted effect of over 20% in size.

The chains behind the UniProt entries cited, without tags or fusion partners. Residues count along the entry.
UniProt P02791, 2-175 limits assumed: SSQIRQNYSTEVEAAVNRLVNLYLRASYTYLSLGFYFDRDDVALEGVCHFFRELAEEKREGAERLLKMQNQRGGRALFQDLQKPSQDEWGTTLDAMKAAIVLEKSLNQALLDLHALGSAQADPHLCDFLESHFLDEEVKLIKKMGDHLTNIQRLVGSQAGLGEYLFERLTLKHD

Compound | activity change, negative = displacement
CCN1CCC(Nc2cccc(F)c2)CC1 | inactive: -11.8%
CC(C)(C)c1ccc(C(=O)NCC2(N3CCOCC3)CCCCC2)cc1 | inactive: -8.21%
CN(C)c1ccc(C(=O)NCC2(N3CCCCC3)CCCCC2)cc1 | inactive: -1.35%
Cc1ccccc1C(=O)NCC1(N(C)C)CCCCC1 | inactive: 5.4%
COc1cc(OC)cc(C(=O)NCC2(N3CCCCC3)CCCCC2)c1 | inactive: 1.95%
CN(C)C1(CNC(=O)c2ccc(C(C)(C)C)cc2)CCCCC1 | inactive: -2.9%
Fc1ccccc1NC1CCN(Cc2ccccc2)CC1 | inactive: -11.2%
CCC(CO)(C(=O)OC1CN2CCC1CC2)c1ccccc1 (centres undefined) | inactive: -7.55%
COc1cc(OC)cc(C(=O)NCC2(N3CCOCC3)CCCCC2)c1 | inactive: -1.56%
COc1cc(C(=O)NCC2(N3CCOCC3)CCCCC2)cc(OC)c1OC | inactive: 9.02%
COc1cccc(C(=O)N(c2cc(C)cc(C)c2)C2CCN(C(=O)OC(C)(C)C)CC2)c1 | inactive: 2.6%
CCCOc1ccc(C)cc1CN(CCCl)CCCl | inactive: 0.89%
CN1CCC(Nc2ccc(Cl)cc2)CC1 | inactive: -1.25%
CCOc1ncccc1C(=O)NCC1(N2CCOCC2)CCCCC1 | inactive: -1.95%
CN1CCC(Nc2ccc(F)c(Cl)c2)CC1 | inactive: -13.3%
CCCOc1ccc(C(=O)NCC2(N(C)C)CCCCC2)cc1 | inactive: 0.985%
CC(C)(C)OC(=O)N1CCC(Nc2ccccc2)CC1 | inactive: -7.98%
O=C(O)C1(Nc2ccccc2)CCN(Cc2ccccc2)CC1 | inactive: 3.98%
N/C(=N\O)c1c(N)no[n+]1[O-] | inactive: -9.94%
CCOC(=O)N1CCC(Nc2ccc(C)cc2)CC1 | inactive: -4.48%
O=C(OC1CN2CCC1CC2)C1c2ccccc2C=Cc2ccccc21 (centres undefined) | inactive: -8.85%
O=C(O)c1cccc(Nc2c([N+](=O)[O-])cc([N+](=O)[O-])cc2[N+](=O)[O-])c1 | inactive: 0.278%
COc1ccc(C(=O)NCC2(N3CCOCC3)CCCCC2)cc1OC | inactive: -1.32%
c1ccc(CN2CCC(Nc3ccccc3)CC2)cc1 | inactive: -9.46%
O=C(NCC1(N2CCOCC2)CCCCC1)c1ccccc1 | inactive: 13.2%
CCCN1CCC(Nc2cc(OC)cc(OC)c2)CC1 | inactive: -6.64%
CN(C)C1(CNC(=O)c2cccc(C#N)c2)CCCCC1 | inactive: 2.59%
O=C(NCC1(N2CCOCC2)CCCCC1)c1ccc([N+](=O)[O-])cc1 | inactive: -4.81%
CC(C)(C)OC(=O)N1CCC(N(C(=O)c2ccccc2)c2ccc(Cl)cc2)CC1 | inactive: -19.2%
